Like-named read-outs stand apart in the source and are kept apart here.

This assay deals with RSV Long strain. The experiment in a line: RSV microneutralization assay, RSV Long strain. It counts as cell-based. The following applies: human respiratory syncytial virus, read-out: RSV Long EC50. The method, then:
HEp-2 cells (ATCC #CCL-23) were seeded at 5E4/well/200 μL in DMEM (Fisher cat #11965118) supplemented with 10% heat-inactivated (HI) fetal bovine serum (HI-FBS; Fisher cat #10-082-147), 1× penicillin-streptomycin (P/S, 100 μg/mL; Fisher cat #MT30002C), and 1× L-glutamine (L-Gln, 2 mM; Fisher cat #25030-164) in 96-well tissue culture treated plates (Fisher cat #08-772-17) and incubated overnight at 37° C. and 5% CO2. Duplicate 10-fold serial dilutions of compound in DMEM with 2% HI-FBS, 1× P/S, 2 mM L-Gln were prepared in 96-well tissue culture plates at 60 μL/well. The RSV Long strain (RetroVirox, San Diego), RSV A2 strain (Virapur, San Diego), RSV B1 strain (RetroVirox, San Diego), or RSV strain CH18537 (RetroVirox, San Diego), were diluted in DMEM with 2% HI-FBS, 1× P/S, 2 mM L-Gln and 60 μL/well added to 60 μL compound for a multiplicity of infection (MOI) of 0.002 (Long, A2), 0.003 (B1), or 0.004 (CH18537). Virus only (no drug) and cells only (no virus, no drug) controls were included on each plate. The compound-virus mix was incubated for 1 h at 37° C. and 5% CO2. […] Absorbance was read at 450 nm with an EnSpire multimode plate reader (PerkinElmer). The mean A450 for the cells only control was subtracted from all A450 values, and the percent virus neutralisation calculated for each compound concentration, relative to the virus only control.

In the case of `C#CCOCCOCCNC(=N)N[C@H]1CCN(c2nc3cc([C@@H]4CCCCN4C(=O)c4cc(Cl)ccc4NS(C)(=O)=O)nn3cc2C)C1` [Int-6], under “144 h, MOI 0.002, HEp-2 cells, day 6”, the EC50 came out at 0.15 µM.
On to `C#CCOCCOCCOCCOCCOCCOCCOCCOCCOCCOCCOCCOCCCCN[C@H]1CCN(c2nc3cc([C@@H]4CCCCN4C(=O)c4cc(Cl)ccc4NS(C)(=O)=O)nn3cc2C)C1` [Int-28], for which the concentration for a half-maximal effect (EC50) (HEp-2, 144 h) was 0.15 µM.

One may read the EC50 as the concentration needed to bring the measured effect to its halfway point.

Source of the values: patent US20230082611A1, “COMPOSITIONS AND METHODS FOR THE TREATMENT OF RESPIRATORY SYNCYTIAL VIRUS” (Cidara Therapeutics, Inc., priority 2019, published 2023).
